Reference: US9296759B2, “Amino-oxazine and amino-dihydrothiazine compounds as beta-secretase modulators and methods of use” (AMGEN INC., priority 2011, dated 2016)

By UniProt entry, the sequences of proteins in these tests, tags left out. Residues count along the entry.
UniProt P56817, 46-501: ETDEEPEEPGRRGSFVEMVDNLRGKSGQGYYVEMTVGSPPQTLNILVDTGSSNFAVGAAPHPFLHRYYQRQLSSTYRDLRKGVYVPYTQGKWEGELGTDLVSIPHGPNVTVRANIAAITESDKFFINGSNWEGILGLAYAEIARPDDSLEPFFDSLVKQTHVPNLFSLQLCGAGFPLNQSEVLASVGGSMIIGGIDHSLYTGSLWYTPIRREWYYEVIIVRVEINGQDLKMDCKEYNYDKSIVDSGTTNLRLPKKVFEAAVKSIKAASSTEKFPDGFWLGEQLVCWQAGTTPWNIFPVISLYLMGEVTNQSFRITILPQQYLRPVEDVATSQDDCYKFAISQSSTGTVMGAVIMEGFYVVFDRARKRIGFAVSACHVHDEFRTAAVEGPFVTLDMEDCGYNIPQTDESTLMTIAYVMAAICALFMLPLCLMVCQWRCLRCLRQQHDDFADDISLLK
UniProt P07339, 65-412, species assumed: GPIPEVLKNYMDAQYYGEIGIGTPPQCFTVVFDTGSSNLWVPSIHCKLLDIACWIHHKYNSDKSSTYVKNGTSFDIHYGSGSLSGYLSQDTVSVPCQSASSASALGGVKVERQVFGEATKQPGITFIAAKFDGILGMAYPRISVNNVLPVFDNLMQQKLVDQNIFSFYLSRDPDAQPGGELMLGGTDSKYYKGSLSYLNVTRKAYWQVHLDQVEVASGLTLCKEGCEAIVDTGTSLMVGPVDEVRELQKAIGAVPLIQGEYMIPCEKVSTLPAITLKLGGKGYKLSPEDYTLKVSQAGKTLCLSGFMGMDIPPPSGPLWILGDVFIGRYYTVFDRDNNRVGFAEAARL

Experiments:
[1] = target: BACE 1 (beta secretase enzyme) (Homo sapiens (Human), UniProt P56817); assay: In vitro enzymatic BACE FRET assay; format: biochemical; details: average IC50
Description: In Vitro Enzymatic BACE FRET (Fluorescence Resonance Energy Transfer) Assay
The assay buffer used in this screen is 0.05 M acetate, pH 4.2, 10% DMSO final, 100 uM genapol (which is a nonionic detergent, below its Critical Micelle Concentration). The beta secretase enzyme (0.2 nM) is pre-incubated for one hour with inhibitors, typically in about 1 uL of DMSO according to a serial dilution, are added thereto. This assay is effectively started by the addition of FRET substrate (50 nM) and the combination is incubated for one hour. The FRET assay is terminated with by addition of Tris buffer, which raises the pH to neutrality, and the fluorescence is determined. The FRET substrate is a peptide with commercially available fluorophore and quencher, on opposite sides of the BACE cleavage site. Proteolytic cleavage of the FRET substrate releases quenching of fluorescence (excitation […] and […]).

[2] = tested on: Aβ40 in conditioned medium of cells stably expressing Amyloid Precursor Protein (APP); assay: In vitro BACE cell-based assay (HEK cell assay, Aβ40 sandwich ELISA); details: Homo sapiens, HEK293; average IC50, Aβ40, 24 h incubation
Description: In Vitro BACE Cell-Based Assay
The cell-based assay measures inhibition or reduction of Aβ40 in conditioned medium of test compound treated cells expressing amyloid precursor protein.
Cells stably expressing Amyloid Precursor Protein (APP) were plated at a density of 40K cells/well in 96 well plates (Costar). The cells were cultivated for 24 hours at 37° C. and 5% CO2 in DMEM supplemented with 10% FBS. The test compounds were then added to cells in 10-point dose response concentrations with the starting concentration being either 100 μM or 10 μM. The compounds were diluted from stock solutions in DMSO and the final DMSO concentration of the test compounds on cells was 0.1%. After 24 h of incubation with the test compounds the supernatant conditioned media was collected and the Aβ 40 levels were determined using a sandwich ELISA. The IC50 of the compound was calculated from the percent of control or percent inhibition of Aβ 40 as a function of the concentration of the test compound. […]
Cellular supernatants were incubated with the capture antibody for 3 h at 4° C., followed by 3 wash steps in TBS-tween (0.05%). […] The final readout of the ELISA is Time-Resolved Fluorescence (counts per minute) using Delfia reagents Streptavidin-Europium and Enhancement solutions (Perkin Elmer) and the Victor 2 multilabel counter (Perkin Elmer).

Cathepsin D = Cathepsin D (Homo sapiens (Human), UniProt P07339); assay: In vitro enzymatic Cat D (Cathepsin D) FRET assay; format: biochemical; details: average IC50
Description: In Vitro Enzymatic Cat D (Cathepsin D) FRET (Fluorescence Resonance Energy Transfer) Assay
Recombinant CathepsinD was expressed in CHO cells. The assay buffer for CathepsinD is 0.05 M citrate pH 3.5, 10% DMSO final, 5 mM CHAPS. […] The assays are effectively started by the addition of different FRET substrates (20 nM for CathepsinD) and the combination is incubated for one hour. The FRET assay is terminated with by addition of Tris buffer, which raises the pH to neutrality, and the fluorescence is determined. The FRET substrate is a peptide with commercially available fluorophore and quencher, on opposite sides of the BACE cleavage site. […] Proteolytic cleavage of the FRET substrate releases quenching of fluorescence (CathepsinD excitation 500 nm and emission 580 nm).

Structure (SMILES)	IC50 [1]	IC50 [2]	IC50 (Cathepsin D)
COc1cnc(C(=O)Nc2ccc3c(c2)[C@@]2(CCOC(N)=N2)c2cc(Cl)nc(F)c2O3)cn1 [Example 47, N-((5S)-2′-amino-3-chloro-1-fluoro-5′,6′-dihydrospiro[chromeno[2,3-c]pyridine-5,4′-[1,3]oxazin]-7-yl)-5-methoxy-2-pyrazinecarboxamide]	26.7 nM	28 nM	
COc1ccc(C(=O)Nc2ccc3c(c2)[C@@]2(CCOC(N)=N2)c2cc(-c4ccnc(F)c4)nc(F)c2O3)nc1 [Example 98, N-((5S)-2′-amino-1-fluoro-3-(2-fluoro-4-pyridinyl)-5′,6′-dihydrospiro[chromeno[2,3-c]pyridine-5,4′-[1,3]oxazin]-7-yl)-5-methoxy-2-pyridinecarboxamide]	1.1 nM	1.1 nM	
COc1nc(C2=CCOCC2)cc2c1Oc1ccc(NC(=O)c3ccc(F)cn3)cc1[C@@]21CCOC(N)=N1 [Example 96, N-((5S)-2′-amino-3-(3,6-dihydro-2H-pyran-4-yl)-1-methoxy-5′,6′-dihydrospiro[chromeno[2,3-c]pyridine-5,4′-[1,3]oxazin]-7-yl)-5-fluoro-2-pyridinecarboxamide]	25.9 nM		400000 nM
